Reference: patent US20020034534A1, “System and method for delivering a therapeutic agent over an extended period of time in conjuction with a receptor loading dose of the therapeutic agent” (priority 1999, published 2002)

Tested on: opioid receptors

SMILES: C=CCN1CC[C@]23c4c5ccc(O)c4O[C@H]2C(=O)CC[C@@]3(O)[C@H]1C5 [naloxone]
- effect of reversing morphine, pellet only phase (1 mg naloxone after total of 50 mg morphine): return to a baseline level of withdrawal symptoms
- effect of reversing morphine, pellet plus oral naltrexone phase (Narcan 2 mg after morphine): no change in their withdrawal symptoms
